Test: Equilibrium solubility at pH 4.5 and pH 6.8 at 37° C., WHO Technical Report Series 1019 protocol (Table 44)
Type: physicochemical

N-{3-[1-(2-nitrophenyl)-1H-pyrrol-2-yl]-allylidene}-aminoguanidinium succinate [AP1189 succinate]
Equilibrium solubility pH 4.5 (buffer pH 4.5, 22 h): 370 mg ± 3 mg/250 mL
Equilibrium solubility pH 6.8 (buffer pH 6.8, 22 h): 261 mg ± 13 mg/250 mL
